# Measured values from patent publication US11547712B2, “Kinase inhibitor compounds and compositions and methods of use” (ICAHN SCHOOL OF MEDICINE AT MOUNT SINAI, priority 2017, dated 2023).
# Key:
# [1] = target: T1, DYRK1A (Homo sapiens (Human), UniProt Q13627); assay: KINOMEscan Assay (DiscoverX), DYRK1A binding; details: read-out: Screening (30 μM) DiscoverX: primary screen binding interactions, % DMSO Ctrl
# Protocol: (§1) DYRK1A Binding Assays. Compounds were tested for DYRK1A binding activity at two different commercial kinase profiling services, Life Technologies and DiscoverX. […] Compounds were screened for DYRK1A activity at a single concentration of 30 μM in duplicates.
# [2] = target: T1, DYRK1A; assay: FRET-based LanthaScreen Eu Kinase Binding Assay (Life Technologies); details: 30 μM single concentration; read-out: Screening (30 μM) LifeTech: % DYRK1A inhibition at 30 μM
# Protocol: as §1
remaining binding at 30 µM [1],inhibition at 30 µM [2],Compound
82%,32%,"O=c1[nH]c2ccc(C3=NN=C(Nc4cccc5ccccc45)SC3)cc2[nH]1 [Compound 3-42, N-(1-naphthyl)-5-(benzo[d]imidazol-2(3H)-one)-6H-1,3,4-thiadiazin-2-amine]"
64%,24%,"O=c1[nH]c2ccc(C3=NN=C(NCc4ccc5ccccc5c4)SC3)cc2[nH]1 [Compound 3-40, N-(2-naphthylmethyl)-5-(benzo[d]imidazol-2(3H)-one)-6H-1,3,4-thiadiazin-2-amine]"
